The text below walks through data of ChEMBL document CHEMBL1165960, “Identification of the three-dimensional pharmacophore of kappa-opioid receptor agonists” (Bioorg Med Chem, 2010).

This assay is described as follows: Selectivity ratio of Ki for mu opioid receptor to kappa opioid receptor.

Take `CN(CCc1ccccc1)C(=O)[C@H]1C[C@@]23C=C[C@]1(O)[C@@H]1Oc4c(O)ccc5c4[C@@]12CCN(CC1CC1)[C@@H]3C5`: the Ratio Ki was found to be 1.2.
